Data as given in publication PMC11435093, “Synthesis and Evaluation of ^99mTc(CO)3 Complexes with Ciprofloxacin Dithiocarbamate for Infection Imaging” (Pharmaceutics, 2024).

Test system: Swiss Albino mice with induced infection (Staphylococcus aureus) and aseptic inflammation (turpentine)
Assay: Biodistribution in mice with induced infection and aseptic inflammation
Type: in vivo
Details: for Urine radioactivity: per sample
Experimental: The in vivo behavior of HPLC purified technetium-99m complexes 1′–6′ was evaluated through biodistribution studies in Swiss Albino mice (40 ± 5 g) with induced infection and aseptic inflammation. The experiment was conducted in accordance with the guidelines for the protection of animals used for scientific purposes. Mice were divided into groups and prepared for biodistribution studies by inducing infection and aseptic inflammation. Twenty-four hours prior to the injection of the technetium complexes, the left thigh muscle of each mouse was inoculated with 50 µL of a Staphylococcus aureus suspension (1 × 10^6 CFU/mL) to induce infection. Aseptic inflammation was induced in the right thigh muscle by injecting 50 µL of turpentine oil. The technetium-99m complexes were administered intravenously via the tail vein. Each mouse received an injection of 0.037 MBq of the respective technetium-99m complex. The biodistribution was studied at two different time points, 15 min and 120 min post-injection. At each time point, the mice were sacrificed under anesthesia. Blood samples were obtained by cardiac puncture. The organs of interest were collected after dissection, including the liver, heart, kidneys, stomach, intestines, spleen, muscle (normal, infected, and inflamed), lungs, pancreas, and urinary bladder. The organs were made free from adhering tissues and transferred into pre-weighed counting vials. The radioactivity of the collected samples was measured using a shielded well-type gamma counter. The results were expressed as a percentage of injected dose per gram of tissue (% ID/g). The radioactivity ratios in infected muscle to normal muscle and inflamed muscle to normal muscle were calculated to assess the specificity and selectivity of the technetium complexes for infection and inflammation.

Substance	Aseptic Infl. (turpentine inflamed muscle) radioactivity (15 min post i.v. injection)	Blood radioactivity (15 min post i.v. injection)	Heart radioactivity (15 min post i.v. injection)	Infection (S. aureus infected muscle) radioactivity (15 min post i.v. injection)	Intestines radioactivity (15 min post i.v. injection)	Kidneys radioactivity (15 min post i.v. injection)	Stomach radioactivity (15 min post i.v. injection)	Urine radioactivity (15 min post i.v. injection)	Aseptic Infl. (turpentine inflamed muscle) radioactivity (120 min post i.v. injection)	Blood radioactivity (120 min post i.v. injection)	Heart radioactivity (120 min post i.v. injection)	Infection (S. aureus infected muscle) radioactivity (120 min post i.v. injection)	Stomach radioactivity (120 min post i.v. injection)	Urine radioactivity (120 min post i.v. injection)	Intestines radioactivity (120 min post i.v. injection)	Pancreas radioactivity (120 min post i.v. injection)
fac-[M(CO)3(Cip-DTC)(DMPP)] [complex 5′]	0.51 ± 0.14 %ID/g	0.91 ± 0.03 %ID/g	2.98 ± 0.46 %ID/g	0.94 ± 0.31 %ID/g	0.61 ± 0.17 %ID/g	3.20 ± 0.35 %ID/g	0.53 ± 0.22 %ID/g	0.03 ± 0.01 %ID	2.37 ± 0.34 %ID/g	0.66 ± 0.05 %ID/g	4.30 ± 1.47 %ID/g	3.10 ± 0.46 %ID/g	2.33 ± 0.44 %ID/g	0.32 ± 0.12 %ID		
fac-[^99mTc(CO)3(Cip-DTC)(H2O)] [complex 1′]	0.78 ± 0.51 %ID/g	14.07 ± 0.83 %ID/g	1.93 ± 0.23 %ID/g					0.15 ± 0.08 %ID	1.33 ± 0.09 %ID/g	7.76 ± 0.29 %ID/g	1.58 ± 0.21 %ID/g	1.80 ± 0.39 %ID/g	1.42 ± 0.30 %ID/g	1.57 ± 0.98 %ID	1.81 ± 0.15 %ID/g	0.82 ± 0.06 %ID/g
